In ChEMBL document CHEMBL1955849, “Design and synthesis of thiourea compounds that inhibit transmembrane anchored carbonic anhydrases” (Bioorg Med Chem, 2012):

What was measured:
[1] = biological target: Carbonic anhydrase 9 (Homo sapiens, UniProt Q16790)
[2] = biological target: Carbonic anhydrase 1 (Homo sapiens, UniProt P00915)

Row | Compound | Ki [1] | Ki [2]
1 | CC(=O)OC[C@H]1O[C@@H](O[C@H]2[C@H](OC(C)=O)[C@@H](OC(C)=O)[C@H](NC(=S)NCc3ccc(S(N)(=O)=O)cc3)O[C@@H]2COC(C)=O)[C@H](OC(C)=O)[C@@H](OC(C)=O)[C@H]1OC(C)=O | 7.3 nM | 
2 | NS(=O)(=O)c1ccc(C(=O)NNC(=S)N[C@@H]2O[C@H](CO)[C@@H](O[C@H]3O[C@H](CO)[C@@H](O)[C@H](O)[C@H]3O)[C@H](O)[C@H]2O)cc1 |  | 4780 nM
3 | CC(=O)OC[C@H]1O[C@@H](NC(=S)NCc2ccc(S(N)(=O)=O)cc2)[C@H](OC(C)=O)[C@@H](OC(C)=O)[C@@H]1O[C@H]1O[C@H](COC(C)=O)[C@@H](OC(C)=O)[C@H](OC(C)=O)[C@H]1OC(C)=O | 7.5 nM | 
4 | NS(=O)(=O)c1ccc(C(=O)NNC(=S)N[C@@H]2O[C@H](CO)[C@@H](O[C@@H]3O[C@H](CO)[C@H](O)[C@H](O)[C@H]3O)[C@H](O)[C@H]2O)cc1 |  | 110 nM
